{"sequences": {"note": "Sequences of proteins named here, by UniProt entry; tags and fusion partners are left off. A change or cut given only in a name is not applied to a line headed by its entry.", "UniProt P41597": "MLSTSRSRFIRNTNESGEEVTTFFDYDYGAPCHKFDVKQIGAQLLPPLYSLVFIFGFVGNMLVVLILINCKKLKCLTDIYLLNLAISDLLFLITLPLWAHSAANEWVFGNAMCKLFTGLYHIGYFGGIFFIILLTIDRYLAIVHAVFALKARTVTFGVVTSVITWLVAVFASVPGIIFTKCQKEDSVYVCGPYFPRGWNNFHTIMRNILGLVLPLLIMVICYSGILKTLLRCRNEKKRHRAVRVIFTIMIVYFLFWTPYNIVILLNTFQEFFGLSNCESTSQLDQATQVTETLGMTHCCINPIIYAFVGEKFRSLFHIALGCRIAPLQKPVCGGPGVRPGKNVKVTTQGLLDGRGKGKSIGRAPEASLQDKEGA"}, "source": "patent US12083102B2", "about": "“Method for treating inflammatory disorders” (DIMERIX BIOSCIENCE PTY LTD, priority 2011, dated 2024)", "target": "Gαi1-Rluc8 and CCR2-YFP (Homo sapiens, UniProt P41597)", "experiment": "Gαi1 coupling, ligand-induced BRET, absence of AT1R (Example 7, top panel)", "assay_type": "cell-based", "settings": "HEK293FT cells; various concentrations of MCP-1; FIG. 9", "data": [{"substance": "MCP-1: Monocyte chemotactic protein-1, also known as monocyte chemoattractant protein-1", "values": [{"measurement": "change in BRET between Gαi1-Rluc8 and CCR2-YFP (receptor activation and coupling to Gαi1)", "result": "in a dose-dependent manner"}]}]}
